Laboratory results reported in patent US20040186081A1, “Naaladase inhibitors for treating opioid tolerance” (Guilford Pharmaceuticals Inc., priority 2003, published 2004).

Amino acid sequences for entries named in this document (tags omitted).
UniProt Q04609, whole entry: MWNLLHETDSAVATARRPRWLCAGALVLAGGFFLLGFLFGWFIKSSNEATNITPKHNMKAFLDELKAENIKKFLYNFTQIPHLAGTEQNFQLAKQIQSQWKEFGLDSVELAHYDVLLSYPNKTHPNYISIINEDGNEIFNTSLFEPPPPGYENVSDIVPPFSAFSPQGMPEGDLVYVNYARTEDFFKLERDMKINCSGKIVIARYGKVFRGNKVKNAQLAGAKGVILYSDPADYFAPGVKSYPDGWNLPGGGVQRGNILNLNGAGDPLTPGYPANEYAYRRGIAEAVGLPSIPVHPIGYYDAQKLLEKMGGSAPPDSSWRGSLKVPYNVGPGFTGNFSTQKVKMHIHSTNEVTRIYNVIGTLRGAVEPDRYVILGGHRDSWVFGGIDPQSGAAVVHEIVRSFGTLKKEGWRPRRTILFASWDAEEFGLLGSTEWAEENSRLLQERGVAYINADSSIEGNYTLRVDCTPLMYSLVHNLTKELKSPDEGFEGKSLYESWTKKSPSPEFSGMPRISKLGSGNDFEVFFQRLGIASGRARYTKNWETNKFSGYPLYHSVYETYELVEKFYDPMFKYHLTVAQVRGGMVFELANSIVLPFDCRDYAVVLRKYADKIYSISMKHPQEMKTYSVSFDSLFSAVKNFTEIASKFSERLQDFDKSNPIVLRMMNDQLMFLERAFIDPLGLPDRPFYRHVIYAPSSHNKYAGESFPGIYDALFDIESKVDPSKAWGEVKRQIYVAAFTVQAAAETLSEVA

Molecular target: NAALADase (Homo sapiens, UniProt Q04609)
Assay: In vitro inhibition of NAALADase activity
Type: biochemical

| Compound | IC50 [nM] |
| --- | --- |
| O=C(O)c1cccc(OC(CCCS)C(=O)O)c1 (centres unmarked) [3-(1-carboxy-4-mercaptobutoxy)-benzoic acid] | 16.3 |
| O=C(O)c1cc(CS)ccc1OCc1ccccc1 [5-(mercaptomethyl)-2-(phenylmethoxy)-benzoic acid] | 85 |
